{"source": "patent US20230416457A1", "about": "“DUAL MODALITY UPS […] TUMOR ACIDOSIS IMAGING” (The Board of Regents of The University of Texas System, priority 2018, published 2023)", "tested_on": "orthotopic HN5 head and neck tumors", "settings": "mouse, in vivo"}
{"substance": "^18F-fluorodeoxyglucose [FDG]", "values": [{"measurement": "HN5 tumor uptake, FDG-PET", "value": "5.4±0.7", "unit": "% ID/g"}, {"measurement": "non-specific uptake in brain, FDG-PET", "value": "7.9±1.6", "unit": "% ID/g"}, {"measurement": "non-specific uptake in brown fats, FDG-PET", "value": "8.1±1.3", "unit": "% ID/g"}, {"measurement": "non-specific uptake in tensed (striated) muscles, FDG-PET", "value": "6.3±0.3", "unit": "% ID/g"}]}
